According to ChEMBL document CHEMBL4043286, “Exploiting the S4-S5 Specificity of Human Neutrophil Proteinase 3 to Improve the Potency of Peptidyl Di(chlorophenyl)-phosphonate Ester Inhibitors: A Kinetic and Molecular Modeling Analysis” (J Med Chem, 2018):
Calls of active or inactive are those of the source. The rule behind the calls is not given here.

Experiments:
[1] = species: Macaca fascicularis; assay: Inhibition of cynomolgus monkey neutrophil PR3 assessed as inactivation rate constant using ABZ-VADnVADYQ-EDDnp as substrate after 20 mins by FRET assay
[2] = target: T1, Neutrophil elastase (Homo sapiens) (UniProt P08246); assay: Inhibition of human NE assessed as inactivation rate constant at using ABZ-APEEIMRRQ-EDDnp as substrate by FRET assay
T1 sequence (whole entry): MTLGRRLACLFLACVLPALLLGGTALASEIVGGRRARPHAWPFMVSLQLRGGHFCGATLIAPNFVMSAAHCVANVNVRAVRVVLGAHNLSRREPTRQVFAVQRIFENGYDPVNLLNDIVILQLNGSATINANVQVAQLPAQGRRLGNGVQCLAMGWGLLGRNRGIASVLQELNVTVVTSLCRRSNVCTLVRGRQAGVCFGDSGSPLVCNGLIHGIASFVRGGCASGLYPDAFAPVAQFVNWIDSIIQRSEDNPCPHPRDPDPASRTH

[3] = target: T2, Myeloblastin (Homo sapiens) (UniProt P24158); assay: Inhibition of human PR3 assessed as inactivation rate constant at 0.15 uM using ABZ-VADnVADYQ-EDDnp as substrate by FRET assay
T2 sequence (whole entry): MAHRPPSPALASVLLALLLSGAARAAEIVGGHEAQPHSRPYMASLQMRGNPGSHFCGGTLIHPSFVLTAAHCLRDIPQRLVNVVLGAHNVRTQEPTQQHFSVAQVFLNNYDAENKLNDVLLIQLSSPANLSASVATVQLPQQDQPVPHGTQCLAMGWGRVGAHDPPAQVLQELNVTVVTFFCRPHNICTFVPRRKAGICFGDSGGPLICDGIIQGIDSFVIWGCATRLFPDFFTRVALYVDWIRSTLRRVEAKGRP

[4] = target: T2, Myeloblastin (Homo sapiens); assay: Inhibition of human PR3 assessed as inactivation rate constant at 0.025 uM using ABZ-VADnVADYQ-EDDnp as substrate by FRET assay
[5] = target: T2, Myeloblastin (Homo sapiens); assay: Inhibition of human PR3 assessed as inactivation rate constant at 0.1 uM using ABZ-VADnVADYQ-EDDnp as substrate by FRET assay
[6] = target: T2, Myeloblastin (Homo sapiens); assay: Inhibition of human PR3 assessed as inactivation rate constant at 0.6 uM using ABZ-VADnVADYQ-EDDnp as substrate by FRET assay

SMILES	inhibition [1]	K [2]	K [3]	K [4]	K [5]	K [6]
CC[C@H](C)[C@H](NC(=O)CCCC[C@@H]1SC[C@@H]2NC(=O)N[C@@H]21)C(=O)N[C@@H](Cc1ccc(O)cc1)C(=O)N[C@@H](CC(=O)O)C(=O)NC(C)P(=O)(Oc1ccc(Cl)cc1)Oc1ccc(Cl)cc1 (some centres undefined)	Active	inactive	8700 M⁻¹ s⁻¹			
CCCC[C@H](NC(=O)CCCC[C@@H]1SC[C@@H]2NC(=O)N[C@@H]21)C(=O)N[C@@H](Cc1ccc(O)cc1)C(=O)N[C@@H](CC(=O)O)C(=O)NC(C)P(=O)(Oc1ccc(Cl)cc1)Oc1ccc(Cl)cc1 (some centres undefined)	Active	inactive		10400 M⁻¹ s⁻¹		
CCCC(NC(=O)[C@H](CC(=O)O)NC(=O)[C@H](Cc1ccc(O)cc1)NC(=O)[C@@H]1CCCN1C(=O)CCCC[C@@H]1SC[C@@H]2NC(=O)N[C@@H]21)P(=O)(Oc1ccc(Cl)cc1)Oc1ccc(Cl)cc1 (some centres undefined)	Active	inactive		18600 M⁻¹ s⁻¹		
CC(C)[C@H](NC(=O)CCCC[C@@H]1SC[C@@H]2NC(=O)N[C@@H]21)C(=O)N[C@@H](Cc1ccc(O)cc1)C(=O)N[C@@H](CC(=O)O)C(=O)NC(C)P(=O)(Oc1ccc(Cl)cc1)Oc1ccc(Cl)cc1 (some centres undefined)	Active	inactive		17400 M⁻¹ s⁻¹		
CCC(NC(=O)[C@H](CC(=O)O)NC(=O)[C@H](Cc1ccc(O)cc1)NC(=O)[C@@H]1CCCN1C(=O)CCCC[C@@H]1SC[C@@H]2NC(=O)N[C@@H]21)P(=O)(Oc1ccc(Cl)cc1)Oc1ccc(Cl)cc1 (some centres undefined)	Active	inactive			4680 M⁻¹ s⁻¹	
CC(NC(=O)[C@H](CC(=O)O)NC(=O)[C@H](Cc1ccc(O)cc1)NC(=O)[C@H](CCCOCc1ccccc1)NC(=O)CCCC[C@@H]1SC[C@@H]2NC(=O)N[C@@H]21)P(=O)(Oc1ccc(Cl)cc1)Oc1ccc(Cl)cc1 (some centres undefined)	Active	inactive			1740 M⁻¹ s⁻¹	
CC(C)C[C@H](NC(=O)CCCC[C@@H]1SC[C@@H]2NC(=O)N[C@@H]21)C(=O)N[C@@H](Cc1ccc(O)cc1)C(=O)N[C@@H](CC(=O)O)C(=O)NC(C)P(=O)(Oc1ccc(Cl)cc1)Oc1ccc(Cl)cc1 (some centres undefined)	Active	inactive	4370 M⁻¹ s⁻¹			
CC(NC(=O)[C@H](CC(=O)O)NC(=O)[C@H](Cc1ccc(O)cc1)NC(=O)[C@@H]1CCCN1C(=O)CCOCCOCCNC(=O)CCOCCOCCNC(=O)CCCC[C@@H]1SC[C@@H]2NC(=O)N[C@@H]21)P(=O)(Oc1ccc(Cl)cc1)Oc1ccc(Cl)cc1 (some centres undefined)	Active	inactive				274 M⁻¹ s⁻¹
